The test system of series [1] is PC12 cells. As to the kind of experiment: Ethidium fluorescence assay, cytotoxicity of Aβ. The class given is cell-based. The following applies: 5 μM Aβ1-42 incubated with VEGF or GST-HBD at 37° C. for 24 hours; PC12 cells 24 hours. Here is the method: The inhibitory activity of VEGF to the cytotoxicity of Aβ was investigated by the conventional method of ethidium fluorescence assay (Qiu WQ et al., J Biol Chem 273:32730-32738 (1998)). VEGF or GST-HBD, each having various concentrations as shown in FIGS. 10A and 10B, and 5 μM Aβ1-42 were mixed and incubated at 37° C. for 24 hours. The mixture was added to PC12 cells (2×10^4, cells/well, kindly provided by Dr. Pann-Ghill Suh), and then left for reaction at 37° C. for 24 hours. Then, equal volume of 4 μM ethidium homodimer-1 was added to the resulted mixture, and reacted for 30 minutes. Thereafter, the fluorescence of the mixture was measured at Ex=530 nm and Em=645 nm, and then, compared with that of control of non-treated PC12 cells, to determine the cytotoxicity of Aβ.

In series [2] the test system is PC12 cells. Kind of series: MTT assay, cytotoxicity of Aβ. In kind it is cell-based. Details: dose or concentration left out as unconfirmed. The following applies: Aβ1-42 incubated with VEGF165 or GST-HBD at 37° C. for 24 hours; PC12 cells 24 hours. Here is the method: In order to such affection, this example investigated the cytotoxicity of Aβ acting on the activity of reduction of PC12 cells, and the affection of VEGF thereon, to determine the viability of the cells using the conventional method of MTT [3-(4,5-dimethylthiazol-2-yl)-2,5-diphenyl-tetrazolium bromide] assay (Shearman et al., J Neurochem 65:218-227 (1995)). […] The mixture was added to PC12 cells (2×10^4, cells/well, kindly provided by Dr. Pann-Ghill Suh), and then left for reaction at 37° C. for 24 hours. Then, 1/10 volume of 5 mg/ml MTT solution was added to the resulted mixture, and reacted for 2 hours. The obtained cells were lysed by 25% dimethylformamide/10% SDS. Thereafter, the absorbance of the lysate was measured at 570 nm, and then, compared with that of control of non-treated PC12 cells, to determine the reduction of MTT, and thereby determining the viability of the cells.
(In general: Tetrazolium dyes change colour on reduction, which living cells bring about.)

Regarding VEGF, in series [1], the “inhibition of the cytotoxicity of Aβ (ethidium homodimer-1 fluorescence)” value is on record as “inhibit the cytotoxicity of Aβ depending on the concentration”. Besides, the “inhibition of the cytotoxicity of Aβ (MTT reduction)” value in series [2] is “concentration-dependent ability to recover the activity of reduction of MTT”.

Source of the values: patent US7795213B2, “Methods of contacting β amyloid protein with VEGF” (POSCO, priority 2002, dated 2010).
